Assay results as given in patent US9296745B2, “Diacylglycerol acyltransferase 2 inhibitors” (Pfizer Inc., priority 2012, dated 2016).

Protein sequences, listed by entry. Tags and fused reporters are not part of them. Lines headed by an entry give the natural chain unless they say otherwise; changes in a name come on top.
UniProt Q96PD7: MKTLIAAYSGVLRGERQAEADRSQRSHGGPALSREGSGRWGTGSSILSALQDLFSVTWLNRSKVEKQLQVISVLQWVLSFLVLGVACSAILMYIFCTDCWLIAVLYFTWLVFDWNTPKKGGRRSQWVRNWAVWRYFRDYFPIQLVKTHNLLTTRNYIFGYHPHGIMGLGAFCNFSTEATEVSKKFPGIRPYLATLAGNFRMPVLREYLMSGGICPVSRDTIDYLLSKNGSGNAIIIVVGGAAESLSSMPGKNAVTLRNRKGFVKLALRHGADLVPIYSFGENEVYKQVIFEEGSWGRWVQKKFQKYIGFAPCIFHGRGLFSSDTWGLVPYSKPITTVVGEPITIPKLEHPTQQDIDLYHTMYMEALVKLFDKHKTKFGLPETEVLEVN

Biological target: Human DGAT2 (hDGAT2) (Homo sapiens (Human), UniProt Q96PD7)
Assay: In vitro DGAT2 assay, IC50 determination with hDGAT2 membrane fraction
Format: biochemical
Conditions: geometric mean; background for complete inhibition of DGAT2 obtained with 50 μM (1R,2R)-2-({3′-Fluoro-4′-[(6-fluoro-1,3-benzothiazol-2-yl)amino]-1,1′-biphenyl-4-yl}carbonyl)cyclopentanecarboxylic acid
Description: Recombinant baculovirus for the FLAG-tagged hDGAT2 was generated in SF9 insect cells using Bac-to-Bac baculovirus expression system (Invitrogen) according to the manufacturer's protocol. For the expression of hDGAT2, SF9 cells (20 L) grown in Sf900II media were infected with hDGAT2 baculovirus at a multiplicity of infection of 1 in a Wave Bioreactor System 20/50P wave bag (GE Healthcare). After 40 hours of infection, the cells were then harvested by centrifugation at 5,000×g. The cell pellets were washed by resuspending in phosphate buffered saline (PBS) and collected by centrifugation at 5,000×g. The cell paste was flash frozen in liquid N2 and stored at −80° C. until needed. All operations below were at 4° C. unless otherwise noted. […]
To 1 μL of compounds dissolved in 100% DMSO and spotted at the bottom of each well, 5 μL of 0.04% bovine serum albumin (BSA) (fatty acid free, Sigma Aldrich) was added and the mixture was incubated at room temperature for 20 minutes. […] Plates were centrifuged at 2,000×g for 1 min in an Allegra 6R Centrifuge (Beckman Coulter) and then were sealed again with fresh covers before reading in a 1450 Microbeta Wallac Trilux Scintillation Counter (Perkin Elmer). DGAT2 activity was measured by quantifying the generated product [^14C]tridecanoylglycerol in the upper organic phase. […]

| IC50 [nM] | Structure (SMILES) |
| --- | --- |
| 128 | O=C([C@@H]1CCCN(c2ccc3nc(C4(Cc5ccccc5)CC4)[nH]c3n2)C1)N1CCCC1 [Example 83, (R)-(1-(2-(1-Benzylcyclopropyl)-3H-imidazo[4,5-b]pyridin-5-yl)piperidin-3-yl)(pyrrolidin-1-yl)methanone] |
| 88.6 | C[C@H](c1nc2ccc(N3CCC[C@@H](C(=O)N4CCCC4)C3)nc2[nH]1)n1cc(F)cn1 [Example 192, ((R)-1-(2-((R)-1-(4-Fluoro-1H-pyrazol-1-yl)ethyl)-3H-imidazo[4,5-b]pyridin-5-yl)piperidin-3-yl)(pyrrolidin-1-yl)methanone] |
